Reference: US20260274986A1, “USE OF CHIMERA IN TARGETED PROTEIN DEGRADATION TECHNOLOGY” (SUN YAT-SEN UNIVERSITY, priority 2023, published 2026)

What was measured:
SKOV3 cells = assay: In vivo anti-tumor activity, SKOV3 subcutaneous tumor in nude mice; conditions: 15 mg/kg intraperitoneal every 4 days, versus model group (PBS)
Excerpt: In this Example 50 SPF-grade nude/nude female mice were used as the experimental animals. The mice were purchased from Beijing Vital River Laboratory Animal Technology Co., Ltd. (Animal Use License No.: SCXK (Jing) 2021-0006), were 6-8 weeks old and weighed 20-25 g. All the mice were housed under a 12-hour light/dark cycle with unrestricted access to food and water, at room temperature and 55% humidity.
A suspension of SKOV3 cells (1×10^7 cells) were subcutaneously inoculated into the right hind limb of each nude mouse with an inoculation volume of 0.2 mL. The model was considered successfully established when the tumor volume reached 100-150 mm^3.
Administration Method: According to the grouping, each mouse was administered 15 mg/kg via intraperitoneal injection every 4 days. The model group received PBS injections.
Sample Collection and Detection: 24 hours after the last administration, the mice were euthanized by cervical dislocation. Subcutaneous tumor tissues were collected. The long and short diameters of the tumor tissues from the mice were measured and the tumor mass was weighed. Tumor volume was calculated using the formula: Tumor Volume=(Length×Width^2)/2.

[1] = tested on: lysosomes and lysosome-related organelles; assay: Electron microscopy of lysosomes and lysosome-related organelles; type: cell-based; conditions: Tz versus untreated normal cells; Ab6 versus Tz group
Excerpt: In this Example, an electron microscope was further used to observe the changes in intracellular lysosomes and lysosome-related organelles including early endosomes, late endosomes, and endolysosomes.

## Trastuzumab [Tz, reference compound]
SKOV3 cells
  tumor growth, tumor volume (FIG. 21A): a certain inhibitory effect on tumor growth
[1]
  number of early endosomes, late endosomes, endolysosomes and lysosomes (electron microscopy, FIG. 17): obvious increased number
